Test results as given in publication PMC3809513, “Imidazopyridazines as potent inhibitors of Plasmodium falciparum calcium-dependent protein kinase 1 (PfCDPK1): Preparation and evaluation of pyrazole linked analogues^” (Bioorganic & Medicinal Chemistry Letters, 2013).

Experiment: LogD shake flask (octanol/PBS)
Format: physicochemical
Conditions: measured log D
Description: LogD measurements were carried out using the shake flask method. Compound was diluted from 10 mM DMSO stock solution into an eppendorf containing equal amounts of octanol and phosphate buffered saline (PBS) to give a final concentration of 100 μM. The tubes were shaken for 12 hours, centrifuged at 10000 rpm for 10 minutes and samples taken from the octanol and PBS layers. The samples from both layers were analysed in triplicate by LC-MS/MS (Agilent Technologies G6410 series, triple quadrupole with MM-ESI ion source) using optimised multiple reaction monitoring (MRM) scans and a standard column gradient on an Acquity UPLC BEH C8 1.7 μm column, running acetonitrile and water with 0.05% Acetic Acid as the mobile phase. The ratios of areas of the peaks were used to calculate the LogD in accordance with the equation: LogD = Log10(Area-TL/Area BL)

## CN1CCC(Nc2ccc3ncc(-c4cnn(-c5ccc(F)cc5)c4)n3n2)CC1
  m Log D: 2.8
